The chains behind the UniProt entries cited, without tags or fusion partners. Residues count along the entry.
UniProt O60894, 27-148: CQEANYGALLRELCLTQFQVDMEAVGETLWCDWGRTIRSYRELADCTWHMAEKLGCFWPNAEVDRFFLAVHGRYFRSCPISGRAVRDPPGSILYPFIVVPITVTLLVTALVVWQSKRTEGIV
UniProt Q16602, 23-461: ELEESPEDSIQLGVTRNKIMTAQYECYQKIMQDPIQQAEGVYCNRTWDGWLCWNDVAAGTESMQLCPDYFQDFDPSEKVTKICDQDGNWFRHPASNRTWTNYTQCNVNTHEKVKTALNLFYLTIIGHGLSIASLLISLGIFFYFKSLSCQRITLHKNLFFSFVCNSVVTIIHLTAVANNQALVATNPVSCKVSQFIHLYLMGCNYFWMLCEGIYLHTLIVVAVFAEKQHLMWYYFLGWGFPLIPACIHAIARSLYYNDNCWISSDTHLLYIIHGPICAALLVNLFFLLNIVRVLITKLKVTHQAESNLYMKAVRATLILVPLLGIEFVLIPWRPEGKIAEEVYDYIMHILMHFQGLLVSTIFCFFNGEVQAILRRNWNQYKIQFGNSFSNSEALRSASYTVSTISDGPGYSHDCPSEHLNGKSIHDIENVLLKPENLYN

According to patent publication US11324832B2, “Tripartite modulators of endosomal G protein-coupled receptors” (Endosome Therapeutics, Inc., priority 2015, dated 2022):

Molecular target: T1, CLR plus RAMP1 (Homo sapiens, UniProt O60894+Q16602)
T1 construct: expressed in transfected cells; host or cells: HEK293 (transient)
Experiment: FRET ERK biosensors in HEK293 cells expressing CLR plus RAMP1
Type: cell-based
Settings: preincubation 30 min
Protocol: HEK293 cells were transfected with 55 ng/well rat NK1R with N-terminal HA. 11 epitope tag (HA-NK1R) or CLR plus RAMP1 and 40 ng/well FRET biosensors. FRET was assessed 48 h after transfection, following serum restriction (0.5% FBS overnight). For experiments using clathrin or dynamin siRNA, cells were transfected with 55 ng/well rat HA-NK1R, 40 ng/well FRET biosensor and 25 nM/well scrambled, clathrin or dynamin ON-TARGETplus SMARTpool siRNA (GE Dharmacon). FRET was assessed 72 h after transfection, following serum restriction (0.5% FBS overnight). Cells were equilibrated in HBSS at 37° C. and FRET was analyzed using a GE Healthcare INCell 2000 Analyzer. For GFP/RFP emission ratio analysis, cells were sequentially excited using a FITC filter (490/20) with emission measured using dsRed (605/52) and FITC (525/36) filters, and a polychroic optimized for the FITC/dsRed filter pair (Quad4). For CFP/YFP emission ratio analysis, cells were sequentially excited using a CFP filter (430/24) with emission measured using YFP (535/30) and CFP (470/24) filters, and a polychroic optimized for the CFP/YFP filter pair (Quad3). Cells were imaged every 1 min, allowing image capture of 14 wells per minute. Baseline emission ratio images were captured for 4 min. […] Data were analyzed as described and expressed as emission ratios relative to baseline for each cell (F/F0). […]

## VTHRLAGLLSRSGGVVKDNFVPTNVGSEAF-NH2 [CGRP8-37, CGRP-R / CLR antagonist]
  antagonism of CGRP-stimulated cytosolic ERK, preincubation: inhibited CGRP-stimulated activation of nuclear and cytosolic ERK
  antagonism of CGRP-stimulated nuclear ERK, preincubation: inhibited CGRP-stimulated activation of nuclear and cytosolic ERK
